Patent US8822534B2, “Substituted aminopropionic derivatives as neprilysin inhibitors” (priority 2009, dated 2014)

Chains of the proteins cited; added tags and fusions are not shown. Lines headed by an entry give the natural chain unless they say otherwise; changes in a name come on top.
UniProt P08473: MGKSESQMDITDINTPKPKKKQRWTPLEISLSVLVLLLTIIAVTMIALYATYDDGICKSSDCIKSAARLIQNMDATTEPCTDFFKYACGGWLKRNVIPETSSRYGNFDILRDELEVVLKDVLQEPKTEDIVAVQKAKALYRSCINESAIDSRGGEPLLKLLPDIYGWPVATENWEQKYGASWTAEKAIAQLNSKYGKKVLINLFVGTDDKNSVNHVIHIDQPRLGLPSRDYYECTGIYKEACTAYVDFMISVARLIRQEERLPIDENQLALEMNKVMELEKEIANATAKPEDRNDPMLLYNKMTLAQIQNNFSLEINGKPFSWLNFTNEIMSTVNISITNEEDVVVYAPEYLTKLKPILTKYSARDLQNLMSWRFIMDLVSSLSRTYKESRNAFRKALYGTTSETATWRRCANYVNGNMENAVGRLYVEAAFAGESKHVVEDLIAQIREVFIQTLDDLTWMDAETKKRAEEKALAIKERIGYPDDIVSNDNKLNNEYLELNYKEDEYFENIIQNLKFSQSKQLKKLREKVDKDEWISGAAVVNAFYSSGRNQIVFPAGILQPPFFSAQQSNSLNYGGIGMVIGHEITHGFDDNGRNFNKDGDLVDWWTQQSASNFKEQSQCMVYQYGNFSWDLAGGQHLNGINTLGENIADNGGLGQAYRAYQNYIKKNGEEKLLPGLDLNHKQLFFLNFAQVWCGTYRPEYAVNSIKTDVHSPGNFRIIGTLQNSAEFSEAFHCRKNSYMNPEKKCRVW

target: recombinant human neutral endopeptidase (NEP, EC 3.4.24.11) (Homo sapiens (Human), UniProt P08473); assay: in vitro inhibition of recombinant human neutral endopeptidase (fluorescence lifetime assay); format: biochemical; conditions: 1 hour pre-incubation, read after 60 min at room temperature, pH 7.4, substrate Cys(PT14)-Arg-Arg-Leu-Trp-OH 0.7 μM

| SMILES | IC50 |
| --- | --- |
| CCCCOC(=O)CCC(=O)N[C@@H](CC(=O)O)Cc1ccc(-c2cccc(Cl)c2)cc1 [Example 3-25, (R)-3-(4-butoxy-4-oxobutanamido)-4-(3′-chlorobiphenyl-4-yl)butanoic acid] | 18 nM |
| CCOC(=O)CCCC(=O)N[C@@H](CC(=O)O)Cc1ccc(-c2cccc(Cl)c2)cc1 [Example 3-26] | 15 nM |
| O=C(O)C[C@@H](Cc1ccc(-c2ccccc2)cc1)NC(=O)c1cnc(O)nc1 [Example 5-11] | 3 nM |
| O=C(O)C[C@@H](Cc1ccc(-c2ccccc2)cc1)NC(=O)c1cc(C(=O)O)ncn1 [Example 5-12] | 67 nM |
| O=C(O)C[C@@H](Cc1ccc(-c2cccc(Cl)c2)cc1)NC(=O)c1n[nH]c(=O)o1 [Example 5-46] | 0.5 nM |
| CCc1ncc(C(=O)N[C@@H](CC(=O)O)Cc2ccc(-c3cccc(Cl)c3)cc2)o1 [Example 5-47] | 2.7 nM |
| COc1ccc(F)cc1-c1ccc(C[C@H](CC(=O)O)NC(=O)c2cc(O)no2)cc1 [Example 5-55] | 0.7 nM |
| O=C(O)C[C@@H](Cc1ccc(-c2cccc(Cl)c2)cc1)NC(=O)C(F)(F)C(F)(F)C(=O)O [Example 11-11] | 0.5 nM |
